PubChem BioAssay AID504577 (NMMLSC, 2011)
This is a selection; strong and weak results do not stand in their true shares. Calls of active or inactive are those of the source. Rule as the data show it: active = response mostly above about 7.3% (no sharp cut-off); inactive = mostly below about 5.4%.

Assay: yeast vacuolar ATPase proton transport modulators – pHLuorin cytosolic pH fluorescence, primary screen (AID 504577); also: actives read high
Conditions: S. cerevisiae, at 10 µM, stronger effect = higher value

| SMILES | response |
| --- | --- |
| CCOC(=O)N1CCC(Nc2cccc(C)c2)CC1 | inactive: 0.23% |
| COc1cc(C(=O)NCC2(N(C)C)CCCCC2)ccc1OC(F)F | inactive: -1.8% |
| CCCCOc1ccc(C(=O)NCC2(N3CCOCC3)CCCCC2)cc1 | inactive: -5.04% |
| O=P1(N(CCCl)CCCl)SCCCS1 | inactive: -3.72% |
| O=C(NCC1(N2CCCCC2)CCCCC1)c1ccc(F)cc1 | inactive: -2.82% |
| CCOC(=O)N1CCC(Nc2ccc(F)cc2)CC1 | inactive: 1.19% |
| COc1ccc(NC2CCN(CCc3ccccc3)CC2)c(OC)c1 | inactive: 6.72% |
| O=C1CCN(Cc2ccccc2)CC1 | inactive: 7.7% |
| CCOc1ccc(C)cc1CN(CCCl)CCCl | inactive: 0% |
| N#CC1(Nc2ccccc2)CCN(Cc2ccccc2)CC1 | inactive: -1.65% |
| O=C(NCC1(N2CCCCC2)CCCCC1)c1ccc(Cl)s1 | inactive: -4.08% |
| O=C(OC1CN2CCC1CC2)C1c2ccccc2Oc2ccccc21 (stereo not given) | inactive: 2.56% |
| COc1ccc(Cl)cc1C(=O)NCC1(N2CCOCC2)CCCCC1 | inactive: -1.36% |
| CCOC(=O)N1CCC(Nc2ccc(OC)cc2)CC1 | inactive: 1.4% |
| O=C(NCC1(N2CCCCC2)CCCCC1)c1ccc(Cl)nc1 | inactive: -1.35% |
| Cc1cc(C)cc(N(C(=O)c2ccccc2)C2CCN(C(=O)OC(C)(C)C)CC2)c1 | inactive: -1.08% |
| O=C(NCC1(N2CCOCC2)CCCCC1)c1cc2ccccc2o1 | inactive: -1.81% |
| CSc1ccccc1C(=O)NCC1(N2CCCCC2)CCCCC1 | inactive: -1.56% |
| Cc1cccc(NC2(C#N)CCN(Cc3ccccc3)CC2)c1 | inactive: -0.79% |
| COc1ccc(C(=O)NCC2(N3CCCCC3)CCCCC2)cc1 | inactive: -0.29% |
| COc1ccc(C(=O)NCC2(N3CCCCC3)CCCCC2)c(OC)c1OC | inactive: -0.81% |
| CC(C)(C)OC(=O)N1CCC(N(C(=O)c2ccccc2)c2ccc(F)cc2)CC1 | inactive: -1.81% |
| O=C(NCC1(N2CCCCC2)CCCCC1)c1ccc(=O)[nH]c1 | inactive: -2.5% |
| O=C(NCC1(N2CCCCC2)CCCCC1)c1cccs1 | inactive: -5.73% |
| Cc1ccc(C(=O)NCC2(N(C)C)CCCCC2)o1 | inactive: 1.71% |

| SMILES | response |
| --- | --- |
| CCCOc1ccc(C(=O)NCC2(N(C)C)CCCCC2)cc1OC | inactive: 0.68% |
| CN1CCC(Nc2cccc(F)c2)CC1 | inactive: 6.43% |
| O=C(NCC1(N2CCCCC2)CCCCC1)c1cncc(Br)c1 | inactive: 4.11% |
| COc1cc(OC)c(C(=O)NCC2(N(C)C)CCCCC2)cc1OC | inactive: -4.49% |
| O=C(NCC1(N2CCOCC2)CCCCC1)c1cc(F)c(F)cc1Cl | inactive: -1.51% |
| CC(C)c1ccc(NC2CCN(C(=O)OC(C)(C)C)CC2)cc1 | inactive: -3.62% |
| COc1ccc(CN(CCCl)CCCl)cc1Cl | inactive: -0.39% |
| CN(C)c1cccc(C(=O)NCC2(N3CCCCC3)CCCCC2)c1 | inactive: 3.68% |
| O=C(NCC1(N2CCOCC2)CCCCC1)c1cc(=O)[nH]c2ccccc12 | inactive: -1.27% |
| COc1cc(C(=O)NCC2(N3CCCCC3)CCCCC2)ccc1OC(F)F | inactive: 2% |
| COc1ccc(NC2CCN(C(=O)OC(C)(C)C)CC2)cc1 | inactive: 0.9% |
| CC(C)c1ccc(C(=O)NCC2(N3CCOCC3)CCCCC2)cc1 | inactive: -1.21% |
| CN1CCN(CCOC(=O)C(O)(c2ccccc2)c2ccccc2)CC1 | inactive: 1.83% |
| O=C(NCC1(N2CCCCC2)CCCCC1)c1cccc(C(F)(F)F)c1 | inactive: 4.29% |
| CCN1CCC(Nc2ccc(Cl)cc2)CC1 | inactive: 2.48% |
| N#CC1(Nc2ccccc2)CCN(CCc2ccccc2)CC1 | inactive: 1.57% |
| CSc1ccc(C(=O)NCC2(N3CCOCC3)CCCCC2)cc1 | inactive: -0.27% |
| O=C(NCC1(N2CCCCC2)CCCCC1)c1cccc([N+](=O)[O-])c1 | inactive: -1.73% |
| O=C(NCC1(N2CCCCC2)CCCCC1)c1ccc(OC(F)F)cc1 | inactive: -1.77% |
| CN(C)C1(CNC(=O)c2cccc(C#N)c2)CCCCC1 | inactive: 0.12% |
| c1ccc(CN2CCC(Nc3ccccc3)CC2)cc1 | inactive: 2.24% |
| CCCN1CCC(Nc2cc(OC)cc(OC)c2)CC1 | inactive: -2.79% |
| Cc1cc(N(CCCl)CCCl)ccc1C=O | inactive: -0.64% |
| N#Cc1ccc(C(=O)NCC2(N3CCCCC3)CCCCC2)cc1 | inactive: 3.72% |
| CC(C)(C)OC(=O)N1CCC(N(C(=O)c2ccccc2)c2ccc(Cl)cc2)CC1 | inactive: 2.76% |

| SMILES | response |
| --- | --- |
| O=C(OC1CN2CCC1CC2)C1c2ccccc2C=Cc2ccccc21 (stereo not given) | inactive: -0.78% |
| CCOC(=O)N1CCC(Nc2ccc(C)cc2)CC1 | inactive: 1.74% |
| N/C(=N\O)c1c(N)no[n+]1[O-] | inactive: 1.73% |
| COc1ccc(C(=O)NCC2(N3CCOCC3)CCCCC2)cc1OC | inactive: 0.82% |
| COc1cc(C(=O)NCC2(N3CCOCC3)CCCCC2)cc(OC)c1C | inactive: -1.92% |
| O=C(NCC1(N2CCOCC2)CCCCC1)c1cc(Br)ccc1Cl | inactive: 0.07% |
| CN1CCC(Nc2ccc(Cl)cc2)CC1 | inactive: -1.62% |
| COc1cccc(C(=O)N(c2cc(C)cc(C)c2)C2CCN(C(=O)OC(C)(C)C)CC2)c1 | inactive: 0.71% |
| COc1cc(OC)cc(C(=O)NCC2(N3CCOCC3)CCCCC2)c1 | inactive: -0.93% |
| CCC(CO)(C(=O)OC1CN2CCC1CC2)c1ccccc1 (stereo not given) | inactive: -1.13% |
| CC(C)(C)OC(=O)N1CCC(Nc2ccccc2)CC1 | inactive: 2.74% |
| O=C(O)C1(Nc2ccccc2)CCN(Cc2ccccc2)CC1 | inactive: -0.87% |
| CCCOc1ccc(C(=O)NCC2(N(C)C)CCCCC2)cc1 | inactive: -1.13% |
| CCOc1ncccc1C(=O)NCC1(N2CCOCC2)CCCCC1 | inactive: -0.03% |
| CN1CCC(Nc2ccc(F)c(Cl)c2)CC1 | inactive: -0.55% |
| O=C(NCC1(N2CCCCC2)CCCCC1)c1ccco1 | inactive: -1.56% |
| CN(C)c1ccc(C(=O)NCC2(N3CCCCC3)CCCCC2)cc1 | inactive: 0.93% |
| Cn1c(=O)[nH]cc(N(CCCl)CCCl)c1=O | inactive: 8% |
| Cc1ccccc1NC1(C#N)CCN(Cc2ccccc2)CC1 | inactive: 3.23% |
| CCN1CCC(Nc2cccc(F)c2)CC1 | inactive: 8.38% |
| Cc1ccc(C(=O)NCC2(N3CCCCC3)CCCCC2)o1 | inactive: 2.82% |
| Fc1ccccc1NC1CCN(Cc2ccccc2)CC1 | inactive: -1.64% |
| Cc1ccc(NC2(C#N)CCN(Cc3ccccc3)CC2)cc1 | inactive: -4.58% |
| CC(=O)N(c1ccccc1)C1CCNCC1 | inactive: 1.64% |
| COc1cc(OC)cc(C(=O)NCC2(N3CCCCC3)CCCCC2)c1 | inactive: -1.35% |
